Literature values in US20260384443A1, “THIADIAZOLES AS GLUTAMINASE I INHIBITORS” (published 2026).

How the values were obtained:
[1] = system: mouse models of pulmonary fibrosis; settings: induced by Bleomycin or TGF-β1; Cui et al. 2019; cited from earlier work
[2] = system: monocrataline induced rat PAH models; settings: Bertero et al. 2016; cited from earlier work

For O=C(Cc1cccc(OC(F)(F)F)c1)Nc1ccc(CCCCc2nnc(NC(=O)Cc3ccccn3)s2)nn1, the “efficacy in mouse models of pulmonary fibrosis” value [1] is listed as “shown efficacy in mouse models of pulmonary fibrosis” and the “endothelial growth, vessel thickening and right ventricular pressure” value [2] is listed as “decrease endothelial growth, vessel thickening and right ventricular pressure”.
